Data from US20250064875A1, “PHARMACEUTICAL COMPOSITION FOR PREVENTING OR TREATING MUSCLE DISEASES” (KOSA BIO INC., priority 2021, published 2025).

Tested on: sarcopenia animal model
Experiment: Sarcopenia animal model, excised tissue weights
Format: in vivo, mice
Conditions: excised tissue weight, day 14; same model and doses
Protocol: Specifically, male C57BL/6 mice (7 weeks old, Samtako Bio Korea, Korea) were acclimatized, and their body weight (g), lean body weight (g), fat mass (g), and body fat percentage (%) were measured using dual-energy X-ray absorptiometry (DXA). Considering these measurements, the mice were grouped into sets of seven, and sarcopenia was induced by administering 20 mg/kg of dexamethasone intraperitoneally once daily for 14 days (FIG. 13). Simultaneously with the dexamethasone treatment, 300 mg/kg of hot water extract of elderberry or 0.5 mg/kg of FL was administered orally once daily. A control group consisted of untreated 5 mice (normal mice) at day 0 of treatment. On days 7 and 14 of treatment, the mice were scanned using DXA to measure body weight, lean body weight, fat mass, and body fat percentage; the results are presented in FIG. 14 and Tables 2 and 3.

## C[C@@H]1C[C@H]2[C@@H]3CCC4=CC(=O)C=C[C@]4(C)[C@@]3(F)[C@@H](O)C[C@]2(C)[C@@]1(O)C(=O)CO [Dexamethasone, dexamethasone, reference compound]
  Liver: 1.514 ± 0.134 g
